Reference: US6117878A, “8-phenyl- or 8-cycloalkyl xanthine antagonists of A2B human adenosine receptors” (priority 1998, dated 2000)

Legend:
[1] = molecular target: T1, recombinant human A2B adenosine receptors (Homo sapiens, UniProt P29275); experiment: Competition for [3H]DPX binding to rhA2B adenosine receptors (Example 2); set-up: expressed in transfected cells; host or cells: cells expressing the recombinant receptor; settings: FIGS. 2A and 2B
T1 sequence (P29275 1-332): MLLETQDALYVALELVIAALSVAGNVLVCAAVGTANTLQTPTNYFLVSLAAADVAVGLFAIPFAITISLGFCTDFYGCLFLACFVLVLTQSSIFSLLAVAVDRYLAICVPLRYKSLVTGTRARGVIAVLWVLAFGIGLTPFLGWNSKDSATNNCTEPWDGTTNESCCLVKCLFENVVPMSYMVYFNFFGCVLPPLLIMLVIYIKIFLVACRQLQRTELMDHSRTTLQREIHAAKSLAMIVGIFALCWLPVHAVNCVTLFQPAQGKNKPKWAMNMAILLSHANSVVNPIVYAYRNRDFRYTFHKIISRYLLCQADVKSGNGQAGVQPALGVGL

[2] = molecular target: T1, recombinant human A2B adenosine receptors; experiment: Calcium mobilization in HEK-293 cells transfected with recombinant human A2B adenosine receptors (FURA); assay type: cell-based; set-up: expressed in transfected cells; host or cells: cells expressing the recombinant receptor; settings: 100 μM antagonist
Method: The activation of the phospholipase C pathway leads to intracellular calcium mobilization.
Calcium mobilization was measured in cells preloaded with FURA.

[3] = molecular target: T1, recombinant human A2B adenosine receptors; experiment: IP3 generation in HEK 293 cells transfected with recombinant human A2B adenosine receptors; settings: 250 μM antagonist

SMILES: Cn1c(=O)c2[nH]cnc2n(C)c1=O [theophylline]
- Affinity for human A2B versus human A3 adenosine receptors [1]: higher affinities for human A2B adenosine receptors than for human A3 adenosine receptors
- Block of Ca2+ response induced by 1 μM NECA [2]: totally blocks
- Block of increase in IP3 produced by 10 μM NECA [3]: able to block the increase in IP3
